Experimental data reported in ChEMBL document CHEMBL5032523, “Discovery of thiazolidin-4-one analogue as selective GSK-3β inhibitor through structure based virtual screening” (Bioorg Med Chem Lett, 2021).

Amino acid sequences for entries named in this document (tags omitted). A change or cut given only in a name is not applied to a line headed by its entry.
UniProt P49841: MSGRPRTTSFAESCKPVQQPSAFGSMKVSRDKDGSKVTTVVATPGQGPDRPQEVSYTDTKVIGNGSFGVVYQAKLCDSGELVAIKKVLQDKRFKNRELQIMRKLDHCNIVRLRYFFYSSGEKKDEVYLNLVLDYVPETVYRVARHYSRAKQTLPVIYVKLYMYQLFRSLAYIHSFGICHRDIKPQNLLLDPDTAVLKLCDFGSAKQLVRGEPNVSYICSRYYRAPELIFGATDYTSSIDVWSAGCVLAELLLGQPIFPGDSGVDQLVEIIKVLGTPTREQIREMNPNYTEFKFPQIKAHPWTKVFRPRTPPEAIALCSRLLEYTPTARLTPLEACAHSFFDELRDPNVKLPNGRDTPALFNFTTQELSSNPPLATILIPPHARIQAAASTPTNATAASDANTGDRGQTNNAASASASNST

Molecular target: Glycogen synthase kinase-3 beta (Homo sapiens, UniProt P49841)
Test: Inhibition of GSK3beta (unknown origin)

IC50: 0.055 µM
Structure (SMILES): O=C1Nc2ccccc2/C1=C1\Nc2ccccc2\C1=N/O
